This passage reports CC50 results from article PMC10451377, “Rationally Designed Pyrimidine Compounds: Promising Novel Antibiotics for the Treatment of Staphylococcus aureus-Associated Bovine Mastitis” (Antibiotics, 2023).

Holding throughout (settings): 24 h
Data set [1] relates to HepG2 cells. The experiment in a line: MTT assay. The class given is cell-based, human.
For data set [2], the system named is HepG2 cells. The experiment in a line: LDH release assay. It counts as cell-based, human.
Data set [3] has as its system MAC-T cells. The experiment in a line: MTT assay. It counts as cell-based, bovine.
In data set [4] the test system is MAC-T cells. The data set is described as follows: LDH release assay. It counts as cell-based, bovine.

As to `O=[N+]([O-])c1ccc(Cl)c2nonc12`, the cytotoxic concentration (CC50) in the data set on HepG2 cells [1] was 16.7 µM; in the data set on HepG2 cells [2], 9.6 µM; with MAC-T cells [3] it was 27.6 µM; in the data set on MAC-T cells [4] it was 22.4 µM.
